1 compound from patent US20220080027A1, “METHODS OF TREATING NEURODEGENERATIVE DISEASES BY TARGETING THE PURINERGIC AND/OR ADENOSINE RECEPTORS” (Board of Regents, The University of Texas System, priority 2020, published 2022) can be followed below.

In test [1] the test system is uninfected PBMCs (lymphocytes and monocytes). The experiment in a line: Transmigration of uninfected PBMCs across the in vitro BBB model in response to CCL2. The following applies: uninfected PBMCs preincubated with blocker, CCL2 100 ng/ml, 24 h. It is filed as cell-based, human. As for the experimental part: (§1) Blood-brain barrier (BBB) model: This in vitro BBB model consists of primary human BMVEC and primary human astrocytes in co-culture on opposite sides of a gelatin-coated, 3 μm pore-size tissue culture insert (Falcon, B D, Franklin Lakes, N.J.) as described by the inventors. Co-cultures were maintained for three days to enable contact between astrocyte endfeet with BMVEC on the opposite side of the model as described. After this, the BBB model was treated with different ATP concentrations (Cat #A1852, Sigma Chemical Co., St. Louis, Mo., USA), and BBB permeability was measured using BSA conjugated to Evans Blue, as described by the inventors.

The subject of test [2] is HIVADA infected PBMCs (lymphocytes and monocytes). The experiment in a line: Transmigration of HIVADA infected PBMCs across the in vitro BBB model in response to CCL2. It is filed as cell-based, human. The following applies: HIV-infected (HIVADA) PBMCs preincubated with blocker, CCL2 100 ng/ml, 24 h. The procedure: as §1
PBMCs infected with the HIVADA were added to the top chamber of BBB co-cultures without CCL2 in the bottom chamber (HIV).

SMILES strings stand for the structures.

Regarding `CCCN(CCC)S(=O)(=O)c1ccc(C(=O)O)cc1` [probenecid], the “effect on transmigration of lymphocytes and monocytes induced by CCL2” value in test [1] is on record as “reduced the transmigration”; in test [1] (listed as Probenecid), “reduced transmigration to control levels”; in test [2] it was “reduced the transmigration”; in test [2] (listed as Probenecid) it was “prevented transmigration”.
